Assay [1] concerns the target T1, ferroportin (Homo sapiens, UniProt Q9NP59).
T1 sequence (Q9NP59 1-571): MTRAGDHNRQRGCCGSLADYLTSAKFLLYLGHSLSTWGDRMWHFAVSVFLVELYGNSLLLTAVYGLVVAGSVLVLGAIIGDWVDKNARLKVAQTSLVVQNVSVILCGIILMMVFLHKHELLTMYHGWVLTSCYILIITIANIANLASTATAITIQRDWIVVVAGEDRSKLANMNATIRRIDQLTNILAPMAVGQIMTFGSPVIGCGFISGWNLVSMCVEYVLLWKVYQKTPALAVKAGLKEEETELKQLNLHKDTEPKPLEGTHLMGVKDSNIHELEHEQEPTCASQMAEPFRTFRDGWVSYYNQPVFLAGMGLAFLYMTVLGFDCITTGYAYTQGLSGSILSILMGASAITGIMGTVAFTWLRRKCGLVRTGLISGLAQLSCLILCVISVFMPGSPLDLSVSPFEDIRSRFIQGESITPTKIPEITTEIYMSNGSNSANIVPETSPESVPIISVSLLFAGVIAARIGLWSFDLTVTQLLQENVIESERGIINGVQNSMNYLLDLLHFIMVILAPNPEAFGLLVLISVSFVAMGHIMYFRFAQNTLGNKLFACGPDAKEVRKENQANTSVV
Description: FPN internalization assay (FPN activity assay), loss of ferroportin-GFP fluorescence. It counts as cell-based.

For assay [2], the target named is T1, ferroportin. Put plainly: T47D internalization assay in presence of mouse serum albumin. The format is cell-based. Set-up: a human breast carcinoma adherent cell line which endogenously expresses ferroportin; host or cells: T47D. To be noted: T47D cells, 0.5% mouse serum albumin, 1 hr incubation. As to the method:
The potency of the peptides disclosed in causing ferroportin internalization was evaluated in a T47D cell-based assay. […] In this internalization assay, the potency of the test peptides was evaluated in presence of serum albumin which is the main protein component in the blood. T47D cells were maintained in RPMI media (containing required amount of fetal bovine serum) and regularly sub-cultured. In preparation for the assay, the cells were seeded in 96-well plates at a density of 80-100 k cells per well in 100 ul volume and allowed to rest overnight. On the next day, test peptides were first prepared in dilution series (10-point series, starting concentration of ˜5 μM, typically 3-4×fold dilution steps), all with 0.5% mouse serum albumin (MSA purified from mouse serum; Sigma, A3139). The test peptide dilution series were allowed to incubate at room temperature for 30 min. Then the media was aspirated from the 96-well cell plate and test peptide dilution series were added. After 1 hr incubation, the media with test peptides was aspirated out and AF647-conjugated detection peptide was added at fixed concentration of 200 nM. The AF647-conjugated detection peptide was previously verified to bind to ferroportin and cause its internalization. The cells were washed again after a 2 hr incubation in preparation for flow cytometry analysis. The Median Fluorescence Intensity (MFI) of the AF647-positive population was measured (after removing dead cells and non-singlets from the analysis). The MFI values were used to generate a dose-response curve and obtain IC50 potencies for the test peptides. The IC50 potencies were calculated by using 4-parameter non-linear fitting function in Graphpad Prism and the results are provided in Table 1C.

Setting [3] is: Table 1D, HEK293 cells stably expressing ferroportin-GFP, compound at least 18 hours, read-out: IC50: FPN.
Where [4] appears, read: Table 1D, read-out: IC50: T47D MSA.
[5] abbreviates: Table 1C, HEK293 cells stably expressing ferroportin-GFP, compound at least 18 hours, read-out: IC50: FPN.
Setting [6] is: Table 1C, read-out: IC50: T47D MSA.

Molecules are shown by their SMILES.

As usually defined, the IC50 is the point on the concentration scale where inhibition reaches its midpoint. Take `CC(C)CC(=O)N[C@@H](CCC(=O)O)C(=O)N[C@H](C(=O)N[C@@H](Cc1c[nH]cn1)C(=O)N[C@H](C(=O)N1CCC[C@H]1C(=O)N[C@@H](CCCC[N+](C)(C)C)C(=O)NCCCCc1ccccc1)C(c1ccccc1)c1ccccc1)[C@@H](C)O` [compound 199]: the figures for the IC50 at ferroportin [1] (setting [3]) and on ferroportin [2] (setting [4]) were 100 to 500 nM and greater than 500 nM, respectively. The corresponding values for `CCCCCCCCCCCCCCCC(=O)NCC[N+](C)(C)CC(=O)NCCCC[C@H](NC(=O)[C@@H]1CSSC[C@H](NC(=O)[C@H](CCC(=O)O)NC(=O)CC(C)C)C(=O)N[C@@H](Cc2c[nH]cn2)C(=O)N[C@@H](C(c2ccccc2)c2ccccc2)C(=O)N1)C(=O)NCCCCc1ccccc1` [compound 195] are 30 to 100 nM and 10 to 100 nM.

On to `CCCCCCCCCCCCCCCC(=O)NCCCCCC(=O)NCCCC[C@@H](C(=O)NCCCCCc1ccccc1)N(C)C(=O)[C@@H]1CCCN1C(=O)[C@@H](NC(=O)[C@H](Cc1c[nH]cn1)NC(=O)[C@H]([C@@H](C)O)N(C)C(=O)[C@H](CCC(=O)OC)NC(=O)CC(C)C)C(c1ccccc1)c1ccccc1` [compound 16], for which the IC50 on ferroportin [1] (setting [5]) was in the range of 1 to 30 nM; on ferroportin [2] (setting [6]), 100 to 500 nM. On to `CC(C)CC(=O)N[C@@H](CCC(=O)O)C(=O)N[C@H](C(=O)N[C@@H](Cc1c[nH]cn1)C(=O)N[C@H](C(=O)N1CCC[C@H]1C(=O)N[C@H](CCCCN)C(=O)N(CCC(=O)O)C(CCCCCCC(=O)O)C(N)=O)C(c1ccccc1)c1ccccc1)[C@@H](C)O` (stereo partly drawn) [compound 141], for which the IC50 at ferroportin [1] (setting [3]) and on ferroportin [2] (setting [4]) was greater than 500 nM throughout. Consider `CCCCCCCCCCCCCCCC(=O)NCC[N+](C)(C)CC(=O)NCCOCCOCC(=O)NCCOCCOCC(=O)NCCCC[C@H](NC(=O)[C@@H]1CCCN1C(=O)[C@@H](NC(=O)[C@H](Cc1c[nH]cn1)NC(=O)[C@@H](NC(=O)[C@H](CCC(=O)O)NC(=O)CC(C)C)[C@@H](C)O)C(c1ccccc1)c1ccccc1)C(=O)N1CCC(c2ccccc2)CC1` [compound 101], for which the IC50 was greater than 500 nM against ferroportin [1] and 0.1 to 10 nM on ferroportin [2] (IC50: T47D MSA (nM, Table 1D)). In the case of `CCCCCCCCCCCCCCCC(=O)NCC[N+](C)(C)CC(=O)NCCOCCOCC(=O)NCCOCCOCC(=O)NCCCC[C@H](NC(=O)[C@@H]1C[C@@H]2CN1C(=O)[C@H](C(c1ccccc1)c1ccccc1)NC(=O)[C@H](Cc1c[nH]cn1)NC(=O)[C@@H]1C[C@@H](CN1C(=O)[C@H](CCC(=O)O)NC(=O)CC(C)C)SS2)C(=O)NCCCCCc1ccccc1` [compound 119], the IC50 at ferroportin [2] (setting [4]) was in the range of 10 to 100 nM. On the same count and under the same terms, as for `CCCCCCCCCCCCCCCC(=O)NCCOCCOCCOCCOCCOCCOCCOCCOCCOCCOCCOCCOCCC(=O)NCCCC[C@H](NC(=O)[C@@H]1CCCN1C(=O)[C@@H](NC(=O)[C@H](Cc1c[nH]cn1)NC(=O)[C@@H](NC(=O)[C@H](CCC(=O)O)NC(=O)CC(C)C)[C@@H](C)O)C(c1ccccc1)c1ccccc1)C(=O)NCCCCCc1ccccc1` [compound 121], the figure is 0.1 to 10 nM. Take `CCCCCCCCCCCCCCCC(=O)NCC[N+](C)(C)CC(=O)NCCOCCOCC(=O)NCCOCCOCC(=O)NCCCC[C@H](NC(=O)[C@@H]1CCCN1C(=O)[C@@H](NC(=O)[C@H](Cc1c[nH]cn1)NC(=O)[C@@H](NC(=O)[C@H](CCC(=O)O)NC(=O)CC(C)C)[C@@H](C)O)C(c1ccccc1)c1ccccc1)C(=O)Nc1nnc(COc2ccccc2)o1` [compound 102]: the IC50 at ferroportin [2] (IC50: T47D MSA (nM, Table 1D)) lay in the range of 0.1 to 10 nM. Consider `COC(=O)CC[C@H](NC(=O)CC(C)C)C(=O)N[C@H](C(=O)N[C@@H](Cc1c[nH]cn1)C(=O)N[C@H](C(=O)N1CCC[C@H]1C(=O)NCC(=O)N1CCC[C@H]1C(=O)N(C)[C@@H](CCCCNC(=O)COCCOCCNC(=O)COCCOCCNC(=O)[C@H](CN)NC(=O)CCCCCCCCCCCCCCCCC(=O)O)C(=O)N[C@H](CC(=O)N[C@H](CCCCN)C(N)=O)Cc1ccccc1)C(c1ccccc1)c1ccccc1)[C@@H](C)O` [compound 44], for which the IC50 at ferroportin [2] (setting [6]) is greater than 500 nM. Regarding `CCCCCCCCCCCCCCCC(=O)N[C@@H](CCC(=O)NCCOCCOCC(=O)NCCOCCOCC(=O)NCCCC[C@H](NC(=O)[C@@H]1CCCN1C(=O)[C@@H](NC(=O)[C@H](Cc1c[nH]cn1)NC(=O)[C@@H](NC(=O)[C@H](CCC(=O)O)NC(=O)CC(C)C)[C@@H](C)O)C(c1ccccc1)c1ccccc1)C(=O)NCCCCCc1ccccc1)C(=O)O` [compound 120], the IC50 on ferroportin [2] (setting [4]) lay within 10 to 100 nM.

For `CCCCCCCCCCCCCCCC(=O)NCCCCCC(=O)N[C@H]1C[C@@H](C(=O)N[C@H](C(N)=O)C(c2ccccc2)c2ccccc2)N(C(=O)[C@@H](NC(=O)[C@H](Cc2c[nH]cn2)NC(=O)[C@@H](NC(=O)[C@H](CCC(=O)O)NC(=O)CC(C)C)[C@@H](C)O)C(c2ccccc2)c2ccccc2)C1` [compound 34], on ferroportin [2] (setting [6]), the IC50 is greater than 500 nM. With `CCCCCCCCCCCCCCCC(=O)NCC[N+](C)(C)CC(=O)NCCOCCOCC(=O)NCCOCCOCC(=O)NCCCC[C@H](NC(=O)[C@@H]1C[C@@H]2CN1C(=O)[C@H](C(c1ccccc1)c1ccccc1)NC(=O)[C@H](Cc1c[nH]cn1)NC(=O)[C@H]([C@@H](C)O)NC(=O)[C@@H](NC(=O)CC(C)C)CCC1=NN=C(O1)C(CC)N2)C(=O)NCCCCc1ccccc1` (stereo partly drawn) [compound 122], the IC50 on ferroportin [2] (IC50: T47D MSA (nM, Table 1D)) fell in the range of 10 to 100 nM.

In the case of `COC(=O)CC[C@H](NC(=O)CC(C)C)C(=O)N(C)[C@H](C(=O)N[C@@H](Cc1c[nH]cn1)C(=O)N[C@H](C(=O)N1CCC[C@H]1C(=O)N(C)[C@@H](CCCCNC(=O)C[N+](C)(C)CCNC(=O)CCCCCCCCCCCCCCCCC(=O)O)C(=O)N[C@H](C(N)=O)C(c1ccccc1)c1ccccc1)C(c1ccccc1)c1ccccc1)[C@@H](C)O` [compound 42], the half-maximal inhibitory concentration (IC50) at ferroportin [2] (setting [6]) was greater than 500 nM. Same read-out and setting: as for `COC(=O)CC[C@H](NC(=O)CC(C)C)C(=O)N[C@H](C(=O)N[C@@H](Cc1c[nH]cn1)C(=O)N[C@H](C(=O)N1CCC[C@H]1C(=O)N(C)[C@@H](CCCCNC(=O)CCCCCNC(=O)C[N+](C)(C)CCNC(=O)CCCCCCCCCCCCCCCCC(=O)O)C(=O)N[C@H](C(N)=O)C(c1ccccc1)c1ccccc1)C(c1ccccc1)c1ccccc1)[C@@H](C)O` [compound 40], the figure is 100 to 500 nM; as for `COC(=O)CC[C@H](NC(=O)CC(C)C)C(=O)N[C@H](C(=O)N[C@@H](Cc1c[nH]cn1)C(=O)N[C@H](C(=O)N1CCC[C@H]1C(=O)NCC(=O)N1CCC[C@@H]1C(=O)N(C)[C@@H](CCCCNC(=O)COCCOCCNC(=O)COCCOCCNC(=O)[C@H](CN)NC(=O)CCCCCCCCCCCCCCCCC(=O)O)C(=O)N[C@H](CC(=O)N[C@H](CCCCN)C(N)=O)Cc1ccccc1)C(c1ccccc1)c1ccccc1)[C@@H](C)O` [compound 45], greater than 500 nM; as for `COC(=O)CC[C@H](NC(=O)CC(C)C)C(=O)N[C@H](C(=O)N[C@@H](Cc1c[nH]cn1)C(=O)N[C@H](C(=O)N1CCC[C@H]1C(=O)N1CCC[C@@H]1C(=O)N(C)[C@@H](CCCCNC(=O)COCCOCCNC(=O)COCCOCCNC(=O)[C@H](CN)NC(=O)CCCCCCCCCCCCCCCCC(=O)O)C(=O)N[C@H](CC(=O)N[C@H](CCCCN)C(N)=O)Cc1ccccc1)C(c1ccccc1)c1ccccc1)[C@@H](C)O` [compound 43], greater than 500 nM.

In the case of `CCCCCCCCCCCCCCCC(=O)NCC[N+](C)(C)CC(=O)NCCOCCOCC(=O)NCCOCCOCC(=O)NCCCC[C@H](NC(=O)[C@@H]1CSSC[C@H](NC(=O)[C@H](CCC(=O)O)NC(=O)CC(C)C)C(=O)N[C@@H](Cc2c[nH]cn2)C(=O)N[C@@H](C(c2ccccc2)c2ccccc2)C(=O)N1)C(=O)NCC(c1ccccc1)c1ccccc1` [compound 215], at ferroportin [1] (setting [3]), the IC50 is 1 to 30 nM. Still for that read-out and setting: to `NCCCC[C@@H](NC(=O)[C@@H]1CCCN1C(=O)[C@@H](NC(=O)[C@H](Cc1c[nH]cn1)NC(=O)CN)C(c1ccccc1)c1ccccc1)C(=O)NCCCCc1ccccc1` [compound 131] belongs greater than 500 nM. As for `CCCCCCCCCCCCCCCC(=O)NCC[N+](C)(C)CC(=O)NCCCC[C@H](NC(=O)[C@@H]1CSSC[C@H](NC(=O)[C@H](CCC(=O)OC)NC(=O)CC(C)C)C(=O)N[C@@H](Cc2cnc[nH]2)C(=O)N[C@@H](C(c2ccccc2)c2ccccc2)C(=O)N1)C(=O)NCCCCCc1ccccc1` [compound 14], at ferroportin [1] (setting [5]), the concentration for half-maximal inhibition (IC50) was greater than 500 nM.

Values taken from patent US20250361280A1 (Protagonist Therapeutics, Inc., priority 2022, published 2025).
